Results from patent US7723071B2 (priority 1992, dated 2010).

By UniProt entry, the sequences of proteins in these tests, tags left out.
UniProt P32300, whole entry V68C: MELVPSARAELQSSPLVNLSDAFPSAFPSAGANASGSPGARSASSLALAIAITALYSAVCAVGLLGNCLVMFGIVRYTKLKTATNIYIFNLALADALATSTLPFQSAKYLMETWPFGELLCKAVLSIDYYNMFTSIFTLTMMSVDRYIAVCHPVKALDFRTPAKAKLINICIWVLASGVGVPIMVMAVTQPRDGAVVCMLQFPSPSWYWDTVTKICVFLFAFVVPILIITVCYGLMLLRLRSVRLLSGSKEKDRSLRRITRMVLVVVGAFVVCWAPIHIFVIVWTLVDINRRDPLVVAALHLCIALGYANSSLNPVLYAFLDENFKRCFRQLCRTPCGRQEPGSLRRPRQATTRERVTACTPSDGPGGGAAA
UniProt P42866, whole entry R47P/S53N/H54D/V245G/R258Q: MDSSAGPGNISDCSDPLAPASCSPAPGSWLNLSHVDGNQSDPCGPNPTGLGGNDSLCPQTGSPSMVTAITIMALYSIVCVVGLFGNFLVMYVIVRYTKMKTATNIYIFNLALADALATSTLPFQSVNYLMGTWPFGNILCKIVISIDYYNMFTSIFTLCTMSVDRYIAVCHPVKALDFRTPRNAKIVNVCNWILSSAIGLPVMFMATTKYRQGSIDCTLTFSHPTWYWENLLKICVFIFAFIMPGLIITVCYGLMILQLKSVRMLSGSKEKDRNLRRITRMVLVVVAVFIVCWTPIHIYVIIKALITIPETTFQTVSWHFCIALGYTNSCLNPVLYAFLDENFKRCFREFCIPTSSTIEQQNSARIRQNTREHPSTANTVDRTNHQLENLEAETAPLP

Experiments:
[1] = target: DOR-1 clone (delta opioid receptor) (Mus musculus, UniProt P32300, V68C)
[2] = target: receptor encoded by the DOR-1 clone (delta opioid receptor) (Mus musculus, UniProt P32300, V68C)
[3] = target: T1, DOR-2 (mMOR-1) mu receptor (Mus musculus, UniProt P42866, H54D/R258Q/R47P/S53N/V245G); format: binding, murine
T1 construct: expressed in transfected cells

Substance	displacement of 125I-DADLE binding [1]	displacement of 3H-diprenorphine [2]	displacement of 3H-diprenorphine, rank in decreasing order of affinity [2]	displacement of 3H-DPN [3]
(D-Ser^2) leucine enkephalin Thr [DSLET]	displaced by nanomolar concentrations	displaced	in decreasing order of affinity, was observed for DSLET, DPDPE and DADLE, and Dynorphin 1-17	
(D-Pen^2, D-Pen^5) enkephalin [DPDPE]	displaced by nanomolar concentrations	displaced	in decreasing order of affinity, was observed for DSLET, DPDPE and DADLE, and Dynorphin 1-17	did not displace
dynorphin 1-17		displaced	in decreasing order of affinity, was observed for DSLET, DPDPE and DADLE, and Dynorphin 1-17	
